Read-outs that look alike come from different tables or passages of the source.
Experiments:
[1] = 20 mg AS in 1 mL propylene glycol and ethanol (4/1 ratio); pH 11.0; estimated
[2] = Solubility in basic solutions without cyclodextrin (HPLC)
[3] = 20 mg AS—Ca in 1 ml
[4] = 20 mg/ml AS—Ca

CC(C)c1c(C(=O)Nc2ccccc2)c(-c2ccccc2)c(-c2ccc(F)cc2)n1CC[C@@H](O)C[C@@H](O)CC(=O)O [AS, Atorvastatin free acid]
AS concentration [1]: about 20 mg/ml
resulting AS concentration ([2]; Sample 2: 20 mg AS in 1 mL ultrapure water, pH 11.15 with 0.1M NaOH): 0.06 mg/mL
resulting AS concentration ([2]; Sample 3: 20 mg AS in 1 mL, 16.54 mM L-Arg and 0.1M Na3PO4, pH 11.42): 0.44 mg/mL

CC(C)c1c(C(=O)Nc2ccccc2)c(-c2ccccc2)c(-c2ccc(F)cc2)n1CC[C@@H](O)C[C@@H](O)CC(=O)O [AS—Ca, atorvastatin calcium trihydrate]
Atorvastatin Concentration ([3]; pH 7.5, HPβ-CD 0.87%): 0.34 mg/mL
Atorvastatin Concentration ([3]; pH 7.5, HPβ-CD 1.74%): 0.43 mg/mL
Atorvastatin Concentration ([3]; pH 7.5, HPβ-CD 3.47%): 1.38 mg/mL
Atorvastatin Concentration ([3]; pH 7.5, HPβ-CD 6.94%): 5.13 mg/mL
Atorvastatin Concentration ([3]; pH 7.5, HPβ-CD 13.89%): 10.01 mg/mL
Atorvastatin Concentration ([3]; pH 7.5, HPβ-CD 27.78%): 19.48 mg/mL
Atorvastatin Concentration ([3]; pH 8.5, HPβ-CD 0.87%): 0.215 mg/mL
Atorvastatin Concentration ([3]; pH 8.5, HPβ-CD 1.74%): 0.52 mg/mL
Atorvastatin Concentration ([3]; pH 8.5, HPβ-CD 3.47%): 1.58 mg/mL
Atorvastatin Concentration ([3]; pH 8.5, HPβ-CD 6.94%): 5.54 mg/mL
Atorvastatin Concentration ([3]; pH 8.5, HPβ-CD 13.89%): 12.42 mg/mL
Atorvastatin Concentration ([3]; pH 8.5, HPβ-CD 27.78%): 19.72 mg/mL
Atorvastatin ([4]; 27.78% SBE-β-CD, Na2HPO4, pH 7.07): 1.993 mg/mL
Atorvastatin ([4]; 27.78% SBE-β-CD, Na2HPO4, pH 8.75): 1.267 mg/mL
Atorvastatin ([4]; 27.78% SBE-β-CD, Na2HPO4, pH 11.75): 1.927 mg/mL
Atorvastatin ([4]; 27.78% SBE-β-CD, sodium phosphate (NaH2PO4), pH 2.13): 0.228 mg/mL
Atorvastatin ([4]; […], pH 7.09): 1.392 mg/mL
Atorvastatin ([4]; […], pH 11.0 (NaOH)): 1.927 mg/mL

Reference: US9820966B2, “Stabilized statin formulations” (Cumberland Pharmaceuticals Inc., priority 2010, dated 2017)
